Laboratory results from patent US20030171306A1, “Cancer treatment method” (priority 2002, published 2003).

System: multiple stage neutrophil progenitors
Experiment: CD15 neutrophil antigen cell-based ELISA (CELISA)
Settings: for protection of neutrophil progenitors from the cytotoxic effects of paclitaxel: PDE4 inhibitor 1 μM in combination with forskolin

Compound	protection of neutrophil progenitors from the cytotoxic effects of paclitaxel	protection of neutrophil progenitors from the cytotoxic effects of topotecan (ariflo 1 μM plus forskolin)
CCCCn1c(=O)c2c(ncn2CC(C)=O)n(CCCC)c1=O [Denbufylline, 7-acetonyl,1,3dibutylxanthine]	protected	–
COC(=O)c1cccc(-n2c(=O)n(Cc3ccccc3)c(=O)c3cccnc32)c1 [CP-77059]	protected	–
COC(=O)N1C[C@@H](c2ccc(OC)c(OC3CCCC3)c2)[C@](C)(C(C)=O)C1 [GI193600X]	protected	–
COc1ccc(C(=O)Nc2c(Cl)cncc2Cl)cc1OC1CCCC1 [Piclamilast, N-(3,5-dichloropyrid-4-yl)-3-cyclopentyloxy-4-methoxybenzamide]	protected	–
COc1ccc([C@]2(C#N)CC[C@@H](C(=O)O)CC2)cc1OC1CCCC1 [Ariflo, cis-4-cyano-4-[3-(cyclopentyloxy)-4-methoxyphenyl]cyclohexane-1-carboxylic acid]	protected	protected
CCn1c(=O)c2ccccc2n(-c2cccc([N+](=O)[O-])c2)c1=O [Nitraquazone]	protected	–
O=c1c2cccnc2n(-c2cccc([N+](=O)[O-])c2)c(=O)n1Cc1ccncc1 [RS-25344]	protected	–
